Assay results published in patent publication US11980618B2, “Nitric oxide releasing phosphodiesterase type 5 inhibitor” (NICOX S.A., priority 2018, dated 2024).

Tests used:
[1] = test system: laser-induced ocular hypertensive non-human primates; test: Intraocular pressure (IOP) lowering effect in laser-induced ocular hypertensive non-human primates (topical dosing, pneumatonometer); type: in vivo
[2] = test system: ocular normotensive New Zealand white rabbits; test: Intraocular pressure (IOP) lowering effects in ocular normotensive New Zealand white rabbits (topical dosing, pneumatonometer); type: in vivo; conditions: Example 24, Table 3, topical 50 μL, 0.5 μmoles/eye (each compound)

SMILES: O=C(O)CCOC[C@@H](CO[N+](=O)[O-])O[N+](=O)[O-]
- IOP change (mmHg) E300 min ([1]; Example 22, Table 1, 300 min post-dose, topical 30 μL, 0.48 μmoles/eye (1.17 μmoles/eye for (IIIg)-OH), mean±SEM n=13): −2.8 ± 2.8 mmHg
- time post-dosing of Emax ([1]; Example 22, Table 1, topical 30 μL, 0.48 μmoles/eye (1.17 μmoles/eye for (IIIg)-OH)): 180 min
- IOP change (mmHg) Emax ([1]; Example 22, Table 1, topical 30 μL, 0.48 μmoles/eye (1.17 μmoles/eye for (IIIg)-OH), change versus basal and vehicle, mean±SEM n=13): −6.0 ± 2.7 mmHg
- IOP change (mmHg) 30 min ([1]; Example 27, Table 6, 0.31 μmoles/eye (each compound), 30 μL topical, 30 min post-dose, mean±SEM n=13): −1.2 ± 0.7 mmHg
- IOP change (mmHg) 60 min ([1]; Example 27, Table 6, 0.31 μmoles/eye (each compound), 30 μL topical, 60 min post-dose, mean±SEM n=13): −3.9 ± 1.5 mmHg
- IOP change (mmHg) 180 min ([1]; Example 27, Table 6, 0.31 μmoles/eye (each compound), 30 μL topical, 180 min post-dose, mean±SEM n=13): −2.4 ± 1.4 mmHg
- IOP change (mmHg) 300 min ([1]; Example 27, Table 6, 0.31 μmoles/eye (each compound), 30 μL topical, 300 min post-dose, mean±SEM n=13): −3.9 ± 1.6 mmHg
- IOP change (mmHg) 1440 min ([1]; Example 27, Table 6, 0.31 μmoles/eye (each compound), 30 μL topical, 1440 min post-dose, mean±SEM n=13): −3.2 ± 1.6 mmHg
- IOP change (mmHg) E300 min ([2]; 300 min post-dosing, mean±SEM n=6-9): −0.08 ± 0.23 mmHg
- time post-dosing of Emax [2]: 30 min
- IOP change (mmHg) Emax ([2]; change versus basal and vehicle, mean±SEM n=6-9): −2.88 ± 0.36 mmHg
